According to ChEMBL document CHEMBL1127645, “Synthesis, structure-activity relationships, and pharmacological evaluation of a series of fluorinated 3-benzyl-5-indolecarboxamides: identification of 4-[[5-[((2R)-2-methyl-4,4,4-trifluorobutyl)carbamoyl]-1-methyl indol- 3-yl]methyl]-3-methoxy-N-[(2-methylphenyl)sulfonyl]benzamide, a potent, …” (J Med Chem, 1994):

Assays:
Cavia porcellus = assay: ED50 (p.o.) / ED50 (i.v.) ratio of the compound; type: functional
How it was run: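 Ratio of oral ED50 to intravenous ED50 from the conscious guinea pig LTD4-induced dyspnea model, used as an index of oral bioavailability.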

[1] = tested on: Cysteinyl leukotriene receptor (Cavia porcellus); assay: Inhibition of percent protection from LTD4-induced dyspnea in a conscious guinea pig administered intravenously

ED50 [1]: 0.045 µmol/kg
SMILES: CCC(CNC(=O)c1ccc2c(c1)c(Cc1ccc(C(=O)NS(=O)(=O)c3ccccc3Br)cc1OC)cn2C)CC(F)(F)F (configuration not stated)
Ratio (Cavia porcellus): 56
